Molecular target: IgE (from a human IgE ELISA kit, Bethyl Laboratories) (human) (UniProt P01854)
Experiment: sandwich ELISA, antibody coated as capture; the concentration is that of IgE

Chains of the proteins cited; added tags and fusions are not shown. A line that says so, or that is headed by a name, gives the form on record, which may keep a tag or linker.
UniProt P01854, other isoform, or with tags, fused parts or gaps: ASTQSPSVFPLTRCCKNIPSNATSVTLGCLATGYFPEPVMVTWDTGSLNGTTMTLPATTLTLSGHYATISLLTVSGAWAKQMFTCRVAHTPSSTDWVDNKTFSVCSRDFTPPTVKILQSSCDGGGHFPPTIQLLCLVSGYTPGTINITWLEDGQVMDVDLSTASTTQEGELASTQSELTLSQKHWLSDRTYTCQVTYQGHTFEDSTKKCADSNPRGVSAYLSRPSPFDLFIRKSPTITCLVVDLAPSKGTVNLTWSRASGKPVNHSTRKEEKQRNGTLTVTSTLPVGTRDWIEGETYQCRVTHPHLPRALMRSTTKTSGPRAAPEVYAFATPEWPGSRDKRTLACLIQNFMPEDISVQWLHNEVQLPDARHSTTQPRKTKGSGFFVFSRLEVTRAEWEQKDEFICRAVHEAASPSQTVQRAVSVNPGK

EC50 (read off the curve): 0.04 µg/mL
Substance: Omalizumab_IgG1_G236R/L328R (antibody)
